The subject of assay [1] is EGFR mutated lung cancer cell line HCC827. Description: PODXL expression by RT-PCR in HCC827 introduced with reprogramming factor (4F). The class given is cell-based, human. The following applies: 4F-introduced HCC827, treated with IC50 concentration of drug.
Assay [2] deals with lung cancer cell line A549 having wild-type EGFR. Description: PODXL expression by RT-PCR in A549 introduced with reprogramming factor (4F). The following applies: A549, gefitinib treatment upon 4F introduction; Gef 10 mM or 50 mM (FIG. 4B legend). The class given is cell-based, human.
Assay [3] relates to EGFR mutation lung cancer cell line HCC827. The following applies: stated as known; cited from earlier work.

Consider one compound from patent US11519901B2, “Method for screening for cancer therapeutic agent” (THE UNIVERSITY OF TOKYO, priority 2015, dated 2022).

The structures appear in SMILES notation.

Take `COc1cc2ncnc(Nc3ccc(F)c(Cl)c3)c2cc1OCCCN1CCOCC1` [gefitinib]: the PODXL expression entry is “promoted” in assay [1] and “did not increase” in assay [2]. Further, in assay [3], the “sensitivity of cell line to drug” value is given as “sensitive”.
